ClpP mod: qHTS Assay for Activators of ClpP; purified B. subtilis ClpP, FRET peptide cleavage, 20 min; 1.9% of 340,000 active; ATP-dependent Clp protease proteolytic subunit (Bacillus subtilis (strain 168)), P80244; AID 651965, 2013; Potency, µM (titrated, usually from 57.5 µM), for the others: at the top dose activity change, negative = active; active = well fitted falling curve with a large enough effect; inconclusive = small, poorly fitted or top-dose-only effect; inactive = no such curve, though single readings can be large or run the other way; note: potency is the fitted concentration of half-maximal effect; the source files actives as falling curves though it sought activators and does not explain the sign; nearly all actives have a fitted effect of over 65% in size
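Purified B. subtilis ClpP, 10 microg/mL final in Tris/HCl pH8 with KCl, BSA, glycerol and Tween-20, cleaved an Abz/nitrotyrosine-quenched decapeptide. Fluorescence (ex 320, em 430) was read at 0 and 20 min at room temperature. Delta was normalized to 5.8 microM ADEP and DMSO/no-enzyme controls.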
p53 reactivator: restores transcriptional activity of mutant p53. H1299 p53-A138V BP100-luciferase reporter, luminescence, 24 h. Potency, µM (series often up to 92.2 µM), without a hit: top-dose activity change, positive = activation, usual class: activators. 0.063% of 320,000 active. AID 504706; note: potency is the fitted concentration of half-maximal effect; % of control where 0% means no effect; nearly all actives have a fitted effect of over 45% in size
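H1299 (p53-null), stable ts p53-A138V + BP100-Luc; 1000 cells/well, Opti-MEM/10% FBS; cpd 4 pt, 1:5; 24 h, 37 deg C, 5% CO2; detection reagent 10 min RT; luminescence.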
A549 viability: counter-screen for Nrf2 inhibitors: cytotoxicity in A549 cells | A549 ARE-Fluc cells, CellTiter-Fluor viability, 18-24 h | Potency, µM (doses to about 46 µM), for inactives: at the top dose activity change, negative = cytotoxicity, usual class: inhibitors | 0.16% of 390,000 active | AID 504648; note: potency is the fitted concentration of half-maximal effect; % is set by controls: 0 for no effect and ±100 for the full control effect
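A549 ARE-Fluc cells in 5% FBS OPTI-MEM, 5000 cells/well, rested 2 h then exposed to compounds in concentration-response for 18-24 h at 37 °C. Viability by CellTiter-Fluor fluorescence (Ex 405/Em 525) after 30 min; luciferase luminescence (BugLite, 15 min, RT) read afterwards.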
miR-21 FLuc: miR-21 reporter, rising signal. HeLa miR-21 FLuc reporter, luciferase, 48 h. Potency, µM (titrated, usually from 38.3 µM), without a hit: at the top dose reporter change, positive = more light. 340,000 tested, under 10 active. AID 2288; active = well fitted rising curve with a large enough effect; inconclusive = small, poorly fitted or top-dose-only effect; inactive = no such curve, though single readings can be large or run the other way;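 also: % of control where 0% means no effect; miR-21 action dims this reporter so a rising signal means less miR-21 action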
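HeLa miR-21-FLuc reporter line, endogenous miR-21; 2000 cells/well in DMEM/10% FBS; compound titration up to ~40uM final, 48 h, 37 degree Celsius; luciferase detection reagent, 15 min lysis, CCD luminescence.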
Nrf2 ARE act: activators of Nrf2 (ARE) signaling. AREc32 ARE-luciferase reporter (MCF7-derived line), luminescence, 24 h. Potency, µM (doses to about 46.1 µM), for the others: top-dose activation, usual class: activators. 0.31% of 410,000 active; note: potency is the fitted concentration of half-maximal effect; % of control where 0% means no effect; nearly all actives have a fitted effect of over 65% in size
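Steps: seed AREc32_Fluc cells (1000/well, 5% FBS OPTI-MEM); incubate overnight at 37 deg C; add 23 nL compound; incubate 24 hr; add Steady-Glo; hold 30 min RT; read luminescence.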
Nrf2 inh: inhibitors of Nrf2 signaling. A549 ARE-Fluc reporter, luciferase luminescence, 18-24 h. Potency, µM (top dose mostly 46 µM), without a hit: at the highest dose activity change, negative = inhibition, hits mostly inhibitors. 2.1% of 360,000 active. AID 504444; note: potency is the fitted concentration of half-maximal effect; % is set by controls: 0 for no effect and ±100 for the full control effect; nearly all actives have a fitted effect of over 60% in size
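Concentration-response testing used A549 ARE_Fluc cells at 5000 cells/well. Following an 18-24 h compound incubation, viability was read by fluorescence (Ex 405/Em 525) and luciferase output by luminescence.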
Starred values were filed as active, the others as inactive; ? = inconclusive; / = no result given. Shown are actives, neighbours in structure and some others; about 3.7% of the full set was active somewhere. Unless noted, calls come from the whole dose curve; as a rule, active = well fitted curve in the direction sought with a large enough effect; inconclusive = small, poorly fitted or top-dose-only effect, or another doubt; inactive = no such curve, though single readings can be large; an effect the other way counts as inactive or inconclusive.

Sequences of proteins named here, by UniProt entry; tags and fusion partners are left off.
ATP-dependent Clp protease proteolytic subunit (Bacillus subtilis (strain 168)), P80244, UniProt P80244, whole entry, looked up: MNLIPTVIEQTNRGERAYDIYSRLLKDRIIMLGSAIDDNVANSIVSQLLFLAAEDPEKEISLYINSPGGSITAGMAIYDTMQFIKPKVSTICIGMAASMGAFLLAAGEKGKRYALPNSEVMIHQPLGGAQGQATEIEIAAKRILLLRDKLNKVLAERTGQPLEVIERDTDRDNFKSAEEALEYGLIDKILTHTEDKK

SMILES | ClpP mod | p53 reactivator | A549 viability | miR-21 FLuc | Nrf2 ARE act | Nrf2 inh
COc1cccc(CN(C)CC(=O)Nc2cccc(S(=O)(=O)N(C)c3ccccc3)c2)c1OC | 1% | / | 0% | / | 0% | ?
CN(C)S(=O)(=O)c1cccc(NC(=O)CCNC(=O)Nc2ccccc2)c1 | 0% | -3% | 9% | / | 0% | -25%
CN(c1ccccc1)S(=O)(=O)c1cccc(NC(=O)Cn2cnc3ccccc3c2=O)c1 | 1% | -4% | -1% | 1% | 2% | /
COc1cc(CC(=O)Nc2cccc(S(=O)(=O)N(C)c3ccccc3)c2)cc(OC)c1OC | 0% | -3% | ? | / | 5% | 15µM*
CN(C)S(=O)(=O)c1cccc(NC(=O)Cc2ccc(-c3ccccc3)cc2)c1 | -3% | -4% | ? | 0% | 3% | 13µM*
COc1ccc(C)cc1NC(=O)c1ccc2nc(Cc3ccccc3)oc2c1 | -24% | / | 10% | ? | 6% | /
Cc1ccc(-n2nc(C(=O)N3CCN(c4ccc(F)cc4)CC3)c(=O)n(C)c2=O)cc1 | 1% | / | -1% | 0% | -1% | /
NS(=O)(=O)c1cccc(NC(=O)CSc2nc3ccc(Cl)cc3[nH]2)c1 | 14µM* | -4% | 2% | -7% | 2% | -2%
Cc1ccc2nc(SCC(=O)Nc3cccc(S(=O)(=O)N(C)C)c3)[nH]c2c1 | 1% | -1% | -3% | -1% | 4% | -30%
CN(C)S(=O)(=O)c1cccc(NC(=O)CSc2nc3ccccc3[nH]2)c1 | / | 1% | -18% | 15% | 0% | 21µM*
CCN1CCN(C(c2cccc(OC)c2)c2c(O)cc(C)n(Cc3ccco3)c2=O)CC1 (stereo not given) | -1% | / | 15% | -1% | 2% | /
Cc1cccc(Nc2ccncc2S(N)(=O)=O)c1 | / | / | 2% | / | 0% | -7%
Cc1ccc(NC(=O)c2ccccc2NS(=O)(=O)c2ccc(Cl)s2)cc1 | 2% | / | ? | ? | 9% | 16µM*
O=C(NCc1ccco1)c1ccccc1NS(=O)(=O)c1ccc(Cl)s1 | -2% | 11% | -3% | 11% | 3% | ?
O=C(Nc1ccccc1Cc1ccccc1)c1ccccc1NS(=O)(=O)c1ccc(Cl)s1 | -10% | 3% | ? | ? | 4% | 18µM*
CS(=O)(=O)c1ccccc1C(=O)Nc1ccccc1Cc1ccccc1 | / | -2% | 5% | 5% | 0% | -5%
O=C(Nc1ccccc1)c1ccccc1NS(=O)(=O)c1ccc(Cl)s1 | -1% | 9% | ? | ? | 2% | 18µM*
CCN(CC)S(=O)(=O)c1ccc2c(c1)nc(CN(C)C(=O)Nc1cccc(Cl)c1)n2C | 1% | / | -3% | 14% | 3% | /
Cc1ccccc1CN1c2ccccc2-c2nc(SCC(=O)NCCc3ccccc3)ncc2S1(=O)=O | ? | / | 3% | -1% | 0% | 23%
CCOc1ccccc1-c1nc(-c2ccc(-c3ccccc3)nc2OCC)no1 | 13µM* | / | -2% | 1% | 8% | 4%
COc1nc(-c2ccc(C)cc2)ccc1-c1noc(-c2ccco2)n1 | 28µM* | 14% | 0% | -36% | 20% | ?
CCOc1nc(-c2ccccc2)ccc1-c1noc(-c2ccco2)n1 | 35µM* | 9% | -3% | -13% | 17% | -11%
CCOc1nc(-c2ccccc2)ccc1-c1noc(COc2ccccc2)n1 | ? | -9% | 15% | -7% | 0% | 9%
O=C(Nc1cccc(Cl)c1)C1CCN(c2nc3ccccc3nc2C(F)(F)F)CC1 | 0% | / | ? | ? | 0% | ?
Cc1ccc2c(=O)c(C(=O)c3ccc(F)cc3)cn(CC(=O)Nc3ccc4c(c3)OCCO4)c2n1 | 2% | / | 3% | -19% | -1% | -4%
The list goes on:
SMILES | ClpP mod | p53 reactivator | A549 viability | miR-21 FLuc | Nrf2 ARE act | Nrf2 inh
CCOC(=O)C(=CNc1cc(C(F)(F)F)ccc1N1CCOCC1)C(=O)OCC | -29% | -6% | 6% | -12% | -1% | -4%
CCC(=O)NC(c1ccc(C)s1)c1cc(Cl)c2cccnc2c1O (stereo not given) | / | / | -7% | / | / | 2%
CCN(CC)C(=O)c1c([N+](=O)[O-])c(C(C)(C)C)nn1C | 25µM* | -7% | -5% | -3% | 0% | 1%
Cn1nc(C(C)(C)C)c([N+](=O)[O-])c1C(=O)NCCO | 1% | -3% | 0% | -2% | 0% | 11%
COc1ccc(Nc2ccc(S(=O)(=O)N3CCCCC3)cc2[N+](=O)[O-])cc1 | -2% | 8% | ? | -3% | -1% | 7.3µM*
O=[N+]([O-])c1cc(S(=O)(=O)N2CCCC2)ccc1N/N=C1/CCCc2ccccc21 | 16µM* | 0% | -4% | 0% | 0% | -4%
COc1ccc(Nc2ccc(S(=O)(=O)N3CCCCC3)cc2[N+](=O)[O-])cc1Cl | -3% | 7% | -18% | -4% | 0% | ?
O=C(COC(=O)c1nc(Cl)c(Cl)c(Cl)c1Cl)c1ccc[nH]1 | 1% | -7% | -6% | / | 22µM* | 20%
O=C(NNC(=O)C12CC3CC(CC(C3)C1)C2)c1cccc([N+](=O)[O-])c1 | / | 2% | -5% | -7% | 10µM* | -9%
N#Cc1nc(-c2cccc3ccccc23)oc1NCCN1CCOCC1 | 6.3µM* | -3% | 11% | -52% | 3% | /
N#Cc1nc(-c2ccco2)oc1NCCN1CCOCC1 | 13µM* | 8% | -1% | -6% | 3% | /
Cc1cc2c(s1)c1cnn(Cc3ccc(C)c(F)c3F)c(=O)c1n2C | / | / | -2% | / | / | 8%
COc1ccc(C2C3=C(CCCC3=O)Nc3ccc4ncccc4c32)cc1OC (stereo not given) | 6.3µM* | -5% | -13% | -41% | 8% | 6%
Nc1ncc(-c2ccccc2)n1CC1CCCO1 (stereo not given) | -7% | 23% | / | -10% | 2% | 16µM*
O=C(c1cnn(-c2ccc(F)cc2)c1-n1cccc1)N1CCN(c2ccccc2)CC1 | -1% | / | 4% | 4% | -1% | -18%
CCOc1ccc(NC(=O)Cn2c(=O)n(Cc3ccccc3)c(=O)c3c4c(sc32)CN(C(C)=O)CC4)cc1 | 0% | / | -5% | 10% | 4% | -14%
c1ccc2c(c1)c1c(c3ccccc32)CN2CCCC2C1 (stereo not given) | 20µM* | / | -17% | / | 5% | -24%
c1ccc(CN2CCC(N3CCC(N4CCCCCC4)CC3)CC2)cc1 | 0% | ? | ? | -6% | 0% | 3%
CCc1ccc2[nH]c(=O)c(C(c3nnnn3CC3CCCO3)N3CCCc4ccccc43)cc2c1 (stereo not given) | 0% | -4% | ? | -1% | 0% | 23µM*

Record cards, as listed above. Order of values: ClpP mod | p53 reactivator | A549 viability | miR-21 FLuc | Nrf2 ARE act | Nrf2 inh
`c1ccc2c(c1)c1c(c3ccccc32)CN2CCCC2C1` (stereo not given) is listed as 20µM* | / | -17% | / | 5% | -24%
`c1ccc(CN2CCC(N3CCC(N4CCCCCC4)CC3)CC2)cc1` is listed as 0% | ? | ? | -6% | 0% | 3%
`Cc1ccccc1CN1c2ccccc2-c2nc(SCC(=O)NCCc3ccccc3)ncc2S1(=O)=O` is listed as ? | / | 3% | -1% | 0% | 23%
`CN(C)S(=O)(=O)c1cccc(NC(=O)CSc2nc3ccccc3[nH]2)c1` is listed as / | 1% | -18% | 15% | 0% | 21µM*
`CN(C)S(=O)(=O)c1cccc(NC(=O)Cc2ccc(-c3ccccc3)cc2)c1` is listed as -3% | -4% | ? | 0% | 3% | 13µM*

Screens as filed in PubChem BioAssay.
